Reference: BindingDB's records for US9221831

Legend:
Details in all cases: pH 7.4
[1] = biological target: T1, Mu-type opioid receptor (Homo sapiens, UniProt P35372)
[2] = biological target: T2, Kappa-type opioid receptor (Homo sapiens, UniProt P41145)
[3] = biological target: T2, Kappa-type opioid receptor; remark: listed apart in the source
[4] = biological target: T3, Delta-type opioid receptor (Homo sapiens, UniProt P41143)
[5] = biological target: T3, Delta-type opioid receptor; remark: listed apart in the source
[6] = biological target: T1, Mu-type opioid receptor; remark: listed apart in the source

| SMILES | Ki [2] [nM] | EC50 [3] [nM] | other results |
| --- | --- | --- | --- |
| COc1ccc2c3c1O[C@H]1[C@@]4(OC)CC[C@@]5(C[C@@H]4COCc4ccc(CC(=O)O)cc4)[C@@H](C2)N(CC2CC2)CC[C@]315 |  |  | EC50 [1]: 946 nM |
| COc1ccc2c3c1O[C@H]1[C@@]4(OC)CC[C@@]5(C[C@@H]4COCC(N)=O)[C@@H](C2)N(CC2CC2)CC[C@]315 | 20.5 |  |  |
| COc1ccc2c3c1O[C@H]1[C@@]4(OC)CC[C@@]5(C[C@@H]4COCc4ccccc4)[C@@H](C2)N(Cc2nn[nH]n2)CC[C@]315 | 43.7 | 2400 |  |
| COc1ccc2c3c1O[C@H]1[C@@]4(OC)CC[C@@]5(C[C@@H]4COCc4ccccc4)[C@@H](C2)N(CCC(N)=O)CC[C@]315 | 1.71 |  |  |
| COc1ccc2c3c1O[C@H]1[C@@]4(OC)CC[C@@]5(C[C@@H]4COCc4ccc(C(O)CO)cc4)[C@@H](C2)N(CC2CC2)CC[C@]315 (stereo not given in full) | 2.75 |  | EC50 [1]: 60.5 nM; Ki [4]: 517 nM; EC50 [5]: 165 nM |
| CO[C@]12CC[C@@]3(C[C@@H]1COCc1ccc(C(N)=O)cc1)[C@H]1Cc4ccc(O)c5c4[C@@]3(CCN1CC1CC1)[C@H]2O5 |  | 1.83 |  |
| COc1ccc2c3c1O[C@H]1[C@@]4(OC)CC[C@@]5(C[C@@H]4COCc4cccc(C(=N)N)c4)[C@@H](C2)N(CC2CC2)CC[C@]315 | 2.86 |  |  |
| CO[C@]12CC[C@@]3(C[C@@H]1COCc1ccccc1)[C@H]1Cc4ccc(-c5nn[nH]n5)c5c4[C@@]3(CCN1CC1CC1)[C@H]2O5 | 5.02 | 367 |  |
| COc1ccc2c3c1O[C@H]1[C@@]4(OC)CC[C@@]5(C[C@@H]4COCc4c(C)noc4C)[C@@H](C2)N(CC2CC2)CC[C@]315 | 0.15 |  |  |
| CO[C@]12CC[C@@]3(C[C@@H]1COCc1ccccc1)[C@H]1Cc4ccc(Br)c5c4[C@@]3(CCN1CC1CC1)[C@H]2O5 | 0.24 | 9.46 |  |
| COc1ccc2c3c1O[C@H]1[C@@]4(OC)CC[C@@]5(C[C@@H]4CSc4nc6ccccc6s4)[C@@H](C2)N(CC2CC2)CC[C@]315 | 8.03 |  |  |
| CO[C@]12CC[C@@]3(C[C@@H]1COCc1ccccc1)[C@H]1Cc4ccc(C(=O)O)c5c4[C@@]3(CCN1C)[C@H]2O5 | 5.49 |  |  |
| COc1ccc2c3c1O[C@H]1[C@@]4(OC)CC[C@@]5(C[C@@H]4COC(=O)[C@@H](N)CCC(N)=O)[C@@H](C2)N(CC2CC2)CC[C@]315 |  | 317 |  |
| CO[C@]12CC[C@@]3(C[C@@H]1COCc1ccccc1)[C@H]1Cc4ccc(C#N)c5c4[C@@]3(CCN1C)[C@H]2O5 | 1.76 | 86.5 |  |
| CO[C@]12CC[C@@]3(C[C@@H]1COCc1ccccc1)[C@H]1Cc4ccc(NC(C)=O)c5c4[C@@]3(CCN1C)[C@H]2O5 |  |  | Ki [4]: 4100 nM |
| COc1ccc2c3c1O[C@H]1[C@@]4(OC)CC[C@@]5(C[C@@H]4COCc4cccc(CC(=O)O)c4)[C@@H](C2)N(CC2CC2)CC[C@]315 | 87.3 |  | Ki [6]: 498 nM |
| COc1ccc2c3c1O[C@H]1[C@@]4(OC)CC[C@@]5(C[C@@H]4COC(=O)[C@@H](N)CO)[C@@H](C2)N(CC2CC2)CC[C@]315 | 26.3 |  |  |
| COc1ccc2c3c1O[C@H]1[C@@]4(OC)CC[C@@]5(C[C@@H]4CNCC(N)=O)[C@@H](C2)N(CC2CC2)CC[C@]315 |  |  | Ki [6]: 55.5 nM |

| SMILES | Ki [2] [nM] | EC50 [3] [nM] | other results |
| --- | --- | --- | --- |
| COc1ccc2c3c1O[C@H]1[C@@]4(OC)CC[C@@]5(C[C@@H]4COCc4cccc(NS(C)(=O)=O)c4)[C@@H](C2)N(CC2CC2)CC[C@]315 | 0.7 |  |  |
| COc1ccc2c3c1O[C@H]1[C@@]4(OC)CC[C@@]5(C[C@@H]4COCc4ccccc4)[C@@H](C2)N(CC(=O)O)CC[C@]315 | 29.4 | 418 |  |
| CO[C@]12CC[C@@]3(C[C@@H]1COCc1cccc(OCC(=O)O)c1)[C@H]1Cc4ccc(O)c5c4[C@@]3(CCN1CC1CC1)[C@H]2O5 | 1.11 |  |  |
| COc1ccc2c3c1O[C@H]1[C@@]4(OC)CC[C@@]5(C[C@@H]4CSc4nc6ccccc6s4)[C@@H](C2)N(C)CC[C@]315 | 45.5 |  | Ki [4]: 318 nM |
| COc1ccc2c3c1O[C@H]1[C@@]4(OC)CC[C@@]5(C[C@@H]4COCC(O)CO)[C@@H](C2)N(CC2CC2)CC[C@]315 (stereo not given in full) | 1.57 |  | Ki [6]: 341 nM |
| CO[C@]12CC[C@@]3(C[C@@H]1COCc1ccccc1)[C@H]1Cc4ccc(CC(O)CO)c5c4[C@@]3(CCN1CC1CC1)[C@H]2O5 (stereo not given in full) | 10.1 |  | EC50 [1]: 893 nM |
| COCCOCCOCCOCCOCCOC[C@H]1C[C@@]23CC[C@]1(OC)[C@@H]1Oc4c(OC)ccc5c4[C@@]12CCN(CC1CC1)[C@@H]3C5 | 47.1 |  |  |
| COc1ccc2c3c1O[C@H]1[C@@]4(OC)CC[C@@]5([C@@H](CC#N)[C@@H]4COCc4ccccc4)[C@@H](C2)N(CC2CC2)CC[C@]315 |  |  | EC50 [1]: 2150 nM |
| CO[C@]12CC[C@@]3(C[C@@H]1COCc1ccccc1)[C@H]1Cc4ccc(C(O)CO)c5c4[C@@]3(CCN1CC1CC1)[C@H]2O5 (stereo not given in full) | 2.76 |  |  |
| COc1ccc2c3c1O[C@H]1[C@@]4(OC)CC[C@@]5(C[C@@H]4COCc4ccccc4)[C@@H](C2)N(CC(N)=O)CC[C@]315 | 16 | 188 | Ki [6]: 177 nM |
| CO[C@]12CC[C@@]3(C[C@@H]1COCc1ccccc1)[C@H]1Cc4ccc(OCC(=O)O)c5c4[C@@]3(CCN1CC1CC1)[C@H]2O5 | 19.8 |  | Ki [4]: 1050 nM; Ki [6]: 164 nM |
| COC(=O)COc1cccc(COC[C@H]2C[C@@]34CC[C@]2(OC)[C@@H]2Oc5c(O)ccc6c5[C@@]23CCN(CC2CC2)[C@@H]4C6)c1 |  | 2.3 |  |
| COc1ccc2c3c1O[C@H]1[C@@]4(OC)CC[C@@]5(C[C@@H]4CSc4nncs4)[C@@H](C2)N(CC2CC2)CC[C@]315 | 2.43 |  |  |
| COc1ccc2c3c1O[C@H]1[C@@]4(OC)CC[C@@]5(C[C@@H]4COCc4cccc(NCC(=O)O)c4)[C@@H](C2)N(CC2CC2)CC[C@]315 | 9.8 | 129 |  |
| COc1ccc2c3c1O[C@H]1[C@@]4(OC)CC[C@@]5(C[C@@H]4CSc4nc(C)ns4)[C@@H](C2)N(CC2CC2)CC[C@]315 | 15 |  | Ki [4]: 618 nM |
| COc1ccc2c3c1O[C@H]1[C@@]4(OC)CC[C@@]5([C@@H](CCC(=O)O)[C@@H]4COCc4ccccc4)[C@@H](C2)N(CC2CC2)CC[C@]315 | 19.3 |  |  |
| CNC(=O)Nc1cccc(COC[C@H]2C[C@@]34CC[C@]2(OC)[C@@H]2Oc5c(O)ccc6c5[C@@]23CCN(CC2CC2)[C@@H]4C6)c1 | 0.11 | 0.58 |  |
| CO[C@]12CC[C@@]3(C[C@@H]1COCc1ccccc1)[C@H]1Cc4ccc(C(=O)O)c5c4[C@@]3(CCN1CC1CC1)[C@H]2O5 | 1.58 |  |  |
